The values that follow come from ChEMBL document CHEMBL5584342, “The Missing Link(er): A Roadmap to Macrocyclization in Drug Discovery” (J Med Chem, 2024).

This data set in a line: physchem. To be noted: buffer, pH 7.4.

Compound `CO[C@H]1/C=C/C[C@H](C)[C@@H](C)S(=O)(=O)NC(=O)c2ccc3c(c2)N(C[C@@H]2CC[C@H]21)C[C@@]1(CCCc2cc(Cl)ccc21)CO3` [TAPOTOCLAX] showed a logD of 3.8.

As a reminder, the logD is lipophilicity at a set pH, counting ionised and neutral species.
